Source: patent US12697313B2, “Methods of treating anemia using formoterol or a pharmaceutically acceptable salt thereof” (Dana-Farber Cancer Institute, Inc., priority 2022, dated 2026)

Tests used:
[1] = system: wild-type mice; test: FF oral gavage in wild-type mice at steady-state; type: in vivo; conditions: 0.1/0.5/1.0 mg/kg o.g.; FIG. 52
[2] = system: phenylhydrazine (PHZ)-treated mice; test: FF/Arf i.p. in PHZ-treated mice at sub-lethal dose of 60 mg/kg; type: in vivo; conditions: 0.3 mg/kg i.p.; FIG. 38
[3] = system: naive wild-type mice; test: FF in naive wild-type mice without PHZ stress (FIG. 62 setup); type: in vivo; conditions: 0.1/0.3/0.5 mg/kg; FIG. 69
[4] = molecular target: β2-AR (Mus musculus, UniProt P18762); conditions: ADRB2-depleted mice (Cameron et al. 2017); cited from earlier work
[5] = system: phenylhydrazine (PHZ)-treated mice; test: FF oral gavage in PHZ-treated mice at sub-lethal dose of 60 mg/kg; type: in vivo; conditions: 0.1/0.3/0.5/1.0 mg/kg o.g.; FIG. 61

(E)-but-2-enedioic acid;N-[2-hydroxy-5-[(1R)-1-hydroxy-2-[[(2R)-1-(4-methoxyphenyl)propan-2-yl]amino]ethyl]phenyl]formamide
RI, RII, RIII and RIV erythroid progenitors in BM [1]: substantially increases RI, RII, RIII and RIV erythroid progenitors | RI, RII, RIII and RIV erythroid progenitors in BM [2]: consistently enhance erythroid progenitors | RI, RII, RIII and RIV erythroid progenitors in BM [3]: substantially increases | specificity for β2-AR [4]: highly specific for β2-AR | RI, RII, RIII and RIV erythroid progenitors in BM [5]: substantially increases RI, RII, RIII and RIV erythroid progenitors
